Assay [1] concerns the target human TNFα (soluble) (human) (UniProt P01375). As to the kind of experiment: cell-based or functional assay.
The target in assay [2] is human non-cleavable membrane bound TNFα on CHO cells (human) (UniProt P01375). As to the kind of experiment: cell-based or functional assay.
Assay [3] addresses human IL-23 (human) (UniProt Q9NPF7). As to the kind of experiment: cell-based or functional assay.
The target is the same in assay [4]. Put plainly: SPR, Biacore T100, 37° C.; human IL-23 injected at 100 nM for 5 min after saturation of the captured antibody with human TNFα. In general terms: In SPR one partner is held on a chip, and binding of the other changes the refractive index at the surface.
Assay [5] has as its target human TNFα (soluble) (human) (UniProt P01375). Put plainly: SPR, Biacore T100, 37° C.; 95.3 RU of antibody captured on protein A, human TNFα injected at 100 nM for 5 min.
The target is the same in assay [6]. Put plainly: SPR, Biacore T100, antibody captured on protein A, 37° C., 1:1 model, n=3.
Assay [7] has as its target human IL-23 (human) (UniProt Q9NPF7). Described as above.

In assay [1], “exemplified bispecific antibody (anti-TNFα IgG1 with an anti-IL-23p19 scFv fused to the C-terminus of each heavy chain)” came in with a CXCL1 Level (pg/mL) in plasma of mice challenged with human TNFα of 622 pg/mL and an inhibition of human TNFα-induced killing of L929 cells (IC50, MTT assay) of 0.233 nM. In assay [2], this substance gave an inhibition of killing of L929 cells by human non-cleavable membrane bound TNFα CHO cells (IC50, MTT assay) of 0.755 nM. In assay [3], this substance returned an inhibition of human IL-23 induced Stat 3 phosphorylation in Kit225 cells (IC50) of 0.158 nM and a mIL22 Level (pg/mL) in plasma of mice challenged with human IL-23 of 1.3 pg/mL.

Broadly, the Kd is the concentration at which binding is half-saturated. A word on the koff: it is the rate constant with which the complex falls apart. Low values mean a long-lived complex, high ones a short-lived complex. The kon is the rate constant with which the complex forms. As for “exemplified bispecific antibody (anti-TNFα IgG1 with an anti-IL-23p19 scFv fused to the C-terminus of each heavy chain) (bispecific antibody; other documents disagree on this pair)”, the additional binding signal (Δ RU) in assay [4] is 57.3 Δ RU. Also, in assay [5], the binding signal (Δ RU) is 32.4 Δ RU. In assay [6], the equilibrium dissociation constant (Kd) turned out to be 0.096 nM, the koff turned out to be 0.0004 s⁻¹ and the kon came to 4.1e+06 M⁻¹ s⁻¹. In addition, in assay [7], the dissociation constant Kd was 0.121 nM, the off-rate constant (koff) turned out to be 0.0001 s⁻¹ and the kon was 830000 M⁻¹ s⁻¹.
